The values that follow are results of earlier work, collected in article PMC4778845.

In the data set the target is HAP. The following applies: cited from earlier work.

For orientation: Kd means the free concentration of one partner at which half of the binding sites on the other are occupied at equilibrium, for simple one-to-one binding. “alpha-bungarotoxin (from UniProt P60615)”: the Kd was 2 nM.
